Results on 1 compound are retold here after patent US20080161320A1, “FUSED BICYCLIC PYRIMIDINES AS PTK INHIBITORS CONTAINING A ZINC BINDING MOIETY” (priority 2006, published 2008).

Chains of the proteins cited; added tags and fusions are not shown. Residues count along the entry.
UniProt P04626, 676-1255: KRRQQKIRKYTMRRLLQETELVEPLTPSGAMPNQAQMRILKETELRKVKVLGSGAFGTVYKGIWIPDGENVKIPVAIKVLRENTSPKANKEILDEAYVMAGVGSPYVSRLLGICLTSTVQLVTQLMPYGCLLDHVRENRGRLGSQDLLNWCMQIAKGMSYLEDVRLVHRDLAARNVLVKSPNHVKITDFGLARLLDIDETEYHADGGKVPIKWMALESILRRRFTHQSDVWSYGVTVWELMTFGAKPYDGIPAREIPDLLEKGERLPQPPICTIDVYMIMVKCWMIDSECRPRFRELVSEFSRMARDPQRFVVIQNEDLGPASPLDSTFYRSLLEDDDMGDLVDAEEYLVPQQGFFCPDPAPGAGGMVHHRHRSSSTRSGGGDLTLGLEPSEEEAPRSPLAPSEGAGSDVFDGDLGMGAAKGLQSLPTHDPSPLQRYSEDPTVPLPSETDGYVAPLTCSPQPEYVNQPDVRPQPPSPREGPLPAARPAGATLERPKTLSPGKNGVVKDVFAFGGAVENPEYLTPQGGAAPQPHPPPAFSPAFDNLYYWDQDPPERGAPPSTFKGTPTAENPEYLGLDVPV

This test has as its target human HER2/ErbB2 (Homo sapiens, UniProt P04626). The test can be described thus: HTScan Receptor Kinase Assay, HER2/ErbB2.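 Also: europium time-resolved fluorescence detection of anti-phosphotyrosine antibody binding to biotinylated FLT3 (Tyr589) peptide phosphorylated by the kinase, 30 min reaction at room temperature.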

A word on the IC50: it is the concentration that gives 50% inhibition. High values mean weaker potency in that assay, low ones greater potency in that assay. `C[C@@H](Nc1ncnc2[nH]c(-c3ccc(CNCCCCCCCC(=O)NO)cc3)cc12)c1ccccc1` [Compound 34, (R)—N-hydroxy-8-(4-(4-(1-phenylethylamino)-7H-pyrrolo[2,3-d]pyrimidin-6-yl)benzylamino)-octanamide] had an IC50 of 100 to 1000 nM.
